# How the values were obtained:
# Assay type in all cases: cell-based
# lung cancer cell lines = assay: Cytotoxicity of scDb on drug-treated lung cancer cell lines with human T cells (PrestoBlue viability); details: 100 nM AMG-510 for 24 hr, human T-cells E:T=5:1, FIG. 19A
# Procedure: FIGS. 19A and 19B. Graphs showing specific cytotoxic effect of AMRA3-7_UCHT1 scDb on drug-treated lung cancer cell lines. […] After incubation, cell viability was measured. […] Data shown here are from quadruplicate measurements.
# To obtain the results for FIG. 19, lung cancer cell lines were cultured in RPMI supplemented with 10% fetal bovine serum (FBS) and penicillin/streptomycin. For cytotoxicity assays, 1×10^4 cells/well were seeded in 96-well flat bottom plates and incubated at 37° C., 5% CO2 for 24 hours. Media were replaced with fresh media supplemented with 100 nM AMG-510 or DMSO, then the cells were incubated for 24 hours at 37° C. After incubation, cells were co-cultured with human T cells (E:T=5:1) and AMRA3-7_UCHT1 scDb in the presence of 100 IU/mL IL-2 for 24 hr at 37° C. Cell viability was assessed by using PrestoBlue™ Cell Viability Reagent (ThermoFisher, A13261). Cytotoxicity was calculated by taking the fluorescent signal of a given well, subtracting the fluorescent signal from the wells that contain only T-cells, and normalizing to the fluorescent signal from the wells without scDb.
# Raji cells = assay: Cytotoxicity of scDb on AMG510-treated wild-type KRAS cells with human T cells (flow cytometry); details: 1 μM AMG-510, T-cells E:T=5:1, 18 hr, FIG. 38
# OCI-AML3 cells = assay: Cytotoxicity of scDb with human T cells (flow cytometry viability of CSFE-positive cells); details: for cytotoxic effect on cells treated with the same peptide without drug conjugation: OCI-AML3, 1 μM EGFR-bME, FIG. 41; for cytotoxic effect on cells spiked with the osimertinib-EGFR peptide conjugate: OCI-AML3, 1 μM peptide conjugate, T-cells E:T=5:1, FIG. 41; for cytotoxic effect on OCI-AML3 cells treated with osimertinib: cells do not possess the target of osimertinib, FIG. 42
# Description: FIG. 41. Cytotoxic effect of scDb antibodies on the cells spiked with the drug-peptide conjugates. […] BB7.2 scDb is an anti-pan HLA-A2 clone, which was used as a positive control. Data shown are from triplicate measurements.
# FIG. 42. Cytotoxic effects of scDb antibodies on OCI-AML3 cells treated with osimertinib. […] BB7.2 scDb is an anti-pan HLA-A2 clone, which was used as a positive control. Data shown are from triplicate measurements.
# OCI-AML3 cells were culture in IMDM supplemented with 20% fetal bovine serum (FBS) and penicillin/streptomycin. OCI-AML3 cells were first stained with carboxyfluorescein succinimidyl ester (CSFE, ThermoFisher, 65-0850-84), then incubated with the final 1 μM EGFR-osimertinib peptide, or 1 μM EGFR peptide pretreated with beta-mercaptoethanol (EGFR-bME) (FIG. 41) or 1 mM osimertinib (FIG. 42) in the presence of 10 μg/mL human beta-2 microglobulin for 4 hr. The cells were harvested using centrifugation and washed in the media. The cells were then co-cultured with human T-cells (E:T=5:1) in the presence of scDb for 18-19 hr. After incubation, cells were harvested and washed with PBS, then stained with Fixable Viability Dye eFluor660 (ThermoFisher, 65-0864-14). After washing cells, the cells were analyzed on iQue screener (Satorius) and the viability of CSFE-positive cells was assessed.
Molecule,cytotoxic effect on drug-treated lung cancer cell lines (lung cancer cell lines),"cytotoxic effect on AMG510-treated Raji cells (wild-type KRAS, HLA-A*03) (Raji cells)",cytotoxic effect on cells treated with the same peptide without drug conjugation (OCI-AML3 cells),cytotoxic effect on cells spiked with the osimertinib-EGFR peptide conjugate (OCI-AML3 cells),cytotoxic effect on OCI-AML3 cells treated with osimertinib (OCI-AML3 cells)
"AMRA3-7_UCHT1 scDb: single-chain Diabody targeting HLA-A*03:01 and HLA-A*11:01 RAS-AMG510, with UCHT1 (protein) DIVRSDIQMTQSPSSLSASVGDRVTITCRASQSVSSAVAWYQQKPGKAPKLLIYSASSLYSGVPSRFSGSRSGTDFTLTISSLQPEDFATYYCQQISYVYSLITFGQGTKVEIKGGGGSEVQLQQSGPELVKPGASMKISCKASGYSFTGYTMNWVKQSHGKNLEWMGLINPYKGVSTYNQKFKDKATLTVDKSSSTAYMELLSLTSEDSAVYYCARSGYYGDSDWYFDVWGQGTTLTVSSGGGGSGGGGSGGGGSDIQMTQTTSSLSASLGDRVTISCRASQDIRNYLNWYQQKPDGTVKLLIYYTSRLHSGVPSKFSGSGSGTDYSLTISNLEQEDIATYFCQQGNTLPWTFAGGTKLEIKGGGGSEVQLVESGGGLVQPGGSLRLSCAASGFTFSSYSIHWVRQAPGKGLEWVASIYSSYGYTSYADSVKGRFTISADTSKNTAYLQMNSLRAEDTAVYYCARGGWYPAMDYWGQGTLVTVSSLEGGGGLNDIFEAQKIEWHESRHHHHHH",dose-dependent cytotoxic effects only on AMG510-treated cells with the cognate KRAS mutation (G12C) and HLA (HLA-A3),Lack of cytotoxic effect,,,
EO_Q16 scDb: single-chain Diabody built from EO_Q16 and UCHT1 (protein) DIVRSDIQMTQSPSSLSASVGDRVTITCRASQSVSSAVAWYQQKPGKAPKLLIYSASSLYSGVPSRFSGSRSGTDFTLTISSLQPEDFATYYCQQYSDWPITFGQGTKVEIKGGGGSEVQLQQSGPELVKPGASMKISCKASGYSFTGYTMNWVKQSHGKNLEWMGLINPYKGVSTYNQKFKDKATLTVDKSSSTAYMELLSLTSEDSAVYYCARSGYYGDSDWYFDVWGQGTTLTVSSGGGGSGGGGSGGGGSDIQMTQTTSSLSASLGDRVTISCRASQDIRNYLNWYQQKPDGTVKLLIYYTSRLHSGVPSKFSGSGSGTDYSLTISNLEQEDIATYFCQQGNTLPWTFAGGTKLEIKGGGGSEVQLVESGGGLVQPGGSLRLSCAASGFTISSSYIHWVRQAPGKGLEWVAYISPSYGSTSYADSVKGRFTISADTSKNTAYLQMNSLRAEDTAVYYCAREYVTMSIDYWGQGTLVTVSSLEGGGGLNDIFEAQKIEWHESRHHHHHH,,,not on the cells treated with the same peptide without drug conjugation,potent cytotoxic effects,did not show cytotoxic effects
EO_Q17 scDb: single-chain Diabody built from EO_Q17 and UCHT1 (protein) DIVRSDIQMTQSPSSLSASVGDRVTITCRASQSVSSAVAWYQQKPGKAPKLLIYSASSLYSGVPSRFSGSRSGTDFTLTISSLQPEDFATYYCQQYSSWPITFGQGTKVEIKGGGGSEVQLQQSGPELVKPGASMKISCKASGYSFTGYTMNWVKQSHGKNLEWMGLINPYKGVSTYNQKFKDKATLTVDKSSSTAYMELLSLTSEDSAVYYCARSGYYGDSDWYFDVWGQGTTLTVSSGGGGSGGGGSGGGGSDIQMTQTTSSLSASLGDRVTISCRASQDIRNYLNWYQQKPDGTVKLLIYYTSRLHSGVPSKFSGSGSGTDYSLTISNLEQEDIATYFCQQGNTLPWTFAGGTKLEIKGGGGSEVQLVESGGGLVQPGGSLRLSCAASGFTISSSYIHWVRQAPGKGLEWVAYISPSYGSTSYADSVKGRFTISADTSKNTAYLQMNSLRAEDTAVYYCARELVEMTPDYWGQGTLVTVSSLEGGGGLNDIFEAQKIEWHESRHHHHHH,,,not on the cells treated with the same peptide without drug conjugation,potent cytotoxic effects,did not show cytotoxic effects

# Reference: patent US20250353912A1, “COMPOSITIONS AND METHODS COMPRISING ANTIBODIES THAT BIND TO COVALENT PEPTIDE CONJUGATES” (New York University, priority 2022, published 2025)
